Legend:
[1] = system: MOR kinase pathways in HEK-MOR cells; assay: DMR after pretreatment with kinase inhibitors (assays J-M); assay type: cell-based, human; settings: ligand 10 µM, maximum within 15 min
[2] = system: MOR G-protein signaling in HEK-MOR cells; settings: ligand 10 µM

For `CN(C(=O)Cc1ccc(Cl)c(Cl)c1)[C@H](CN1CCCC1)c1ccccc1` [ICI 199,441], the “maximal DMR response after SB202190 pretreatment vs untreated” value ([1]; 10 µM SB202190 1 hr) was “significantly reduced”, the “maximal DMR response after SP100625 pretreatment vs untreated” value ([1]; 10 µM SP100625 1 hr) was “enhanced” and the “ligand-induced DMR in pertussis toxin (PTx)-pretreated cells” value ([2]; 100 ng/ml PTx 20 hr) was “small N-DMR”. The “ligand-induced DMR in cholera toxin (CTx)-pretreated cells vs untreated” value ([2]; 400 ng/ml CTx 20 hr) was “reduce”.

From article PMC3189208 (PLoS ONE, 2011)
